This is an account of results in PubChem BioAssay AID2100 (National Center for Advancing Translational Sciences (NCATS), 2009).

Only a part is listed here, and it is no random draw. Results filed as inconclusive are left out. Active and inactive are the calls of the source. Calls follow the shape of the dose curve; as a rule, active = well fitted inhibition curve with a large enough effect; inconclusive = small, poorly fitted or top-dose-only effect, or another doubt; inactive = no such curve, though single readings can be large or run the other way.

The target in the assay is Lysosomal alpha-glucosidase (Homo sapiens) (UniProt P10253). Put plainly: qHTS Assay for Inhibitors and Activators of Human alpha-Glucosidase Cleavage of Glycogen.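 Also: 0% = full enzyme reaction and -100% = no-enzyme basal signal; the screen sought inhibitors and activators.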 To be noted: recombinant GAA, glycogen substrate, Amplex Red glucose oxidase fluorescence; at 76.4 µM (top of the series). From the text:
NIH Chemical Genomics Center [NCGC] NIH Molecular Libraries Probe Production Centers Network [MLPCN] MLPCN Grant: R03 MH084841-01 Assay Submitter (PI): Wei Zheng NCGC Assay Overview: Alpha-glucosidase is responsible for the hydrolysis of terminal, non-reducing 1,4-linked alpha-D-glucose residues, which releases alpha-D-glucose. It is a lysosomal hydrolase that is required for the degradation of a small percentage (1-3%) of cellular glycogen in humans. Deficiency of this enzyme results in glycogen-storage disease type II (GSDII), also referred to as Pompe disease, an autosomal recessive disorder. Structurally normal glycogen is accumulated in the lysosomes and cytoplasm in affected patients, primarily in muscle tissues. […]
NCGC Assay Protocol Summary: This is an enzyme assay using glycogen from bovine liver (Sigma catalog #: G0885) as the substrate and recombinant human alpha-glucosidase as the enzyme preparation. Upon hydrolysis of the substrate, the glucose product can be detected using the Amplex Red Glucose Oxidase Assay Kit (Invitrogen catalog #: A22189). The product of this reaction can be read with a fluorescence plate reader with an excitation at 573 nm and an emission at 610 nm. […] The AC50 values were determined from concentration-response data modeled with the standard Hill equation. […] (7) Detect the assay plate in a ViewLux plate reader (PerkinElmer) with Ex=573 nm and Em=610nm. […]
On to `COc1ccc(OP(C)(=O)Nc2cccc(Br)c2)cc1` (stereo unspecified), for which the activity change, negative = inhibition was inactive: 1.79%.
